Patent US7550469B2, “Heterocyclic amide derivatives and their use as dopamine D3 receptor ligands” (Aventis Pharmaceuticals Inc., priority 2001, dated 2009)

By UniProt entry, the sequences of proteins in these tests, tags left out.
UniProt P35348, whole entry: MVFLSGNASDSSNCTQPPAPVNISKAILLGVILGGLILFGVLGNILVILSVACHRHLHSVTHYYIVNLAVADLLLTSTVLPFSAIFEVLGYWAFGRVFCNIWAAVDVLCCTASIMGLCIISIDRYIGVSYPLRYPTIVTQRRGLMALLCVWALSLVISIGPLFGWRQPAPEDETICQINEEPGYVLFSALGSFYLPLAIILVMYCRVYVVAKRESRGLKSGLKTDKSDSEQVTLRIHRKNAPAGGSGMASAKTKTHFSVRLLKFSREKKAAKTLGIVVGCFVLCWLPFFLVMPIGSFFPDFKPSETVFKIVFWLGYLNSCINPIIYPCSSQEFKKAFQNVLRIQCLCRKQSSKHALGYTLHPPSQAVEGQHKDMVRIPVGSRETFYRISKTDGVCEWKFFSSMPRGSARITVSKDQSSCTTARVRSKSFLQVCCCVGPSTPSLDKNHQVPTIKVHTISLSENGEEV
UniProt P35462, whole entry: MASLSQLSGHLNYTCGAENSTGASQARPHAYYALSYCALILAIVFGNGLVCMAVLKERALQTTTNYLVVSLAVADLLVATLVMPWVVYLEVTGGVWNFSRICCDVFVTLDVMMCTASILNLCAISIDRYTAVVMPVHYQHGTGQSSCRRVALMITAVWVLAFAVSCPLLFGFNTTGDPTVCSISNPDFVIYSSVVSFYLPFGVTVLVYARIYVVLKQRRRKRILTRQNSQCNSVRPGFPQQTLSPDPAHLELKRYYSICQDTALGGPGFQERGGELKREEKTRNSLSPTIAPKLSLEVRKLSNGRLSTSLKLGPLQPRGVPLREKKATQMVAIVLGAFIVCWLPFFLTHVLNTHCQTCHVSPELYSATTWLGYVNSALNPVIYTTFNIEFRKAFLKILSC

What follows are compounds tested against cloned human alpha-1A adrenergic receptors (α1a) (Homo sapiens, UniProt P35348) (assay: [3H]Prazosin binding to cloned human alpha-1A adrenergic receptors expressed in CHO cells). Details: read-out: h-α1 Ki, piperazines (n = 1) vs homopiperazines (n = 2).
From the text: ^3H]PRAZOSIN BINDING TO CLONED HUMAN ALPHA-1A ADRENERGIC RECEPTORS (α1a) EXPRESSED IN CHINESE HAMSTER OVARY CELLS (CHO)
Purpose: This in vitro assay is designed as a screen to identify compounds displaying a affinity for the human α1a adrenoceptor subtype expressed in the membrane fragments of CHO cells. The assay measures the ability of the test compounds to displace [^3H] prazosin from α1a sites. • The identification of multiple vascular α1-addrenoceptors (α1a, α1b, α1d) in vitro has provided impetus to define the role(s) of these subtypes in cardiovascular regulation in vivo (Vargas and Gorman, 1995). […] Prazosin is a potent antagonist of the human α1a-adrenoceptor subtype, which has been cloned and is expressed in the membrane fragments of CHO cells. hα1a Receptor: The cloning of the human α1a cDNA was accomplished first by screening a human prostate cDNA library (Clontech), from which a portion of the coding region was obtained. This DNA fragment was then used to screen a human leukocyte genomic library (Clontech), and the rest of the coding sequence was obtained. Later these two fragments were spliced together. The entire coding sequence was then fully sequenced including matching PCR sequence with original genomic coding sequence, thus ensuring splice sites were joined correctly (Schwinn et al., 1995). Once sequenced, the gene was subcloned into the expression vector pcDNA3 (Invitrogen). Plasmid DNA was then used for transfection into CHO cells and G418 resistant clones were isolated. A clone expressing high levels of the hα1a receptor (as determined by mRNA and receptor binding data) was chosen and pharmacologically characterized. Culture Media: Media Ingredients for Adherent α1a expressing CHO Culture: • A. HAM's F-12 (Cellgro) • B. 10% 0.2 micron filtered Fetal Bovine Serum (FBS)(Cellgro) • C. 1% 0.2 micron filtered Penicillin-Streptomycin (Celigro) • D. G418 0.2 micron filtered (Geneticin 400 μg/ml)(Cellgro) • Cells are cultured using established methods and procedures in either 150×25 mm culture plates (scale up to 100 plates) or a combination of these plates and 70 roller bottles. One culturing/harvest cycle typically requires 2 weeks and yields between 100-400 mg protein. Plates or bottles are incubated at 37° C.+5% CO2. Storage: Cells are harvested by mechanical scraping, washed using PBS, collected in 250 ml Corning polypropylene centrifuge tubes, spun down (1500RPM) and resuspended in dH2O 10% DMSO (final volume per harvest is approximately 50 ml). Protein determination is made using the Biorad DC Assay Kit. […]
Assay Requirement: 0.5 cryovials per 96 well plate (assay volume=200 μl/well) [^3H]-Ligand: [7-methoxy-^3H]-Prazosin: 1.0 nM (NEN, NET-823) • 70-87 Ci/mmol Materials: Phentolamine mesylate (Research Biochemicals Int. #P-131) • 96 well flat bottom plates (Beckman) • Unifilter GF/B Plate (Packard) • Polyethylenimine (Sigma #P-3134) • TomTec or Packard Filtermate 196 Cell Harvesters • Packard TopCount Scintillation Counter Buffers: A: 50 mM Tris HCl; 0.1% ascorbate, pH 7.7 (incubation buffer) • B: 50 mM Tris HCl; pH 7.7 (wash buffer) Procedure: Assay additions are as follows (in the order indicated): • Total Binding=50 μl buffer A+50 μl [^3H]prazosin+100 μl membrane • Nonsp. Bd.=50 μl 10 μM phentolamine+50 μl [^3H]prazosin+100 μl membrane • Test Cpd.=50 μl compound+50 μl [^3H]prazosin+100 μl membrane • Compounds to be evaluated are weighed out to yield a 10 mM stock solution in DMSO in a 24 well polystyrene plate. […]

Ki | Compound
35 nM | COc1cccc(CC(=O)NCCCCN2CCCN(c3csc4cc(F)ccc34)CC2)c1 [S982510]
136 nM | O=C(NCCCCN1CCCN(c2csc3cc(F)ccc23)CC1)c1ccc(C(F)(F)F)cc1 [S9818147]

These compounds were tested against cloned human dopamine D3 receptors (Homo sapiens, UniProt P35462) (assay: [N-Methyl-3H]Spiroperidol binding to cloned human dopamine D3 receptors (Protocol 1)). Details: read-out: D3K1.
From the text: [N-Methyl-^3H]Spiroperidol Binding to Cloned Human Dopamine D3 Receptors
This assay measures the in vitro activity of compounds on cloned human dopamine (D3) receptors and predicts the direct dopamine-blocking properties of putative neuropsychiatric agents at human dopamine D3 receptors.
The D3 gene was isolated from a human striatal cDNA library (Stratagene). The gene was sequenced and sub-cloned into the expression vector RC/RSV (Invitrogen). CHO (Chinese Hamster Ovary) cells were stably transfected with 10 μg of the D3/RSV plasmid using the DOTAP method from Boehringer Mannheim and 72 clones that were G418 resistant were isolated. Using mRNA and binding displacement data a single high expressing clone was identified. This clone was then grown in large batches for the purpose of developing a 96 well format assay.
• 1. One plate (10 cm) with approximately 2-3 million D3 cells per plate is incubated with 1 ml of Trypsin-EDTA at room temperature for ˜2 min or until cells have lifted off plates. Four ml of Ham's F12+10% Fetal Bovine Serum+1% Penicillin/Streptomycin+G418 (400 μg/ml) medium are added to resuspend cells and 1 ml of this is added to each large plate (15 cm) containing 19 ml of the-same medium as mentioned above. • 2. The 5 large plates are incubated at 37° C.+5% CO2 for ˜3 days or until the cells are confluent. • 3. After these plates are confluent, they are split into 10 large plates. Medium is aspirated off, 2 ml of Trypsin-EDTA are added to each plate and plates are incubated at RT for 2 min or until cells have lifted off the plate. Eight ml of the F12 medium (same medium as #1 above) are added to each plate (10 ml total) to resuspend the cells and 5 ml are transferred to the 2 new plates containing 15 ml of the F12 media. • 4. The 10 large plates are incubated at 37° C.+5% CO2 for ˜2 days or until the cells are confluent. • 5. The 10 large plates are split into 60 large plates (using Trypsin-EDTA as #3 except 4 ml of F12 medium are added to resuspend cells and 1 ml is aliquoted to 6 new plates containing 19 ml of F12 medium each). • 6. Plates are incubated at […]+5% CO2 for ˜3 days or until cell are confluent. • 7. The 60 large plates are then split into 60 roller bottles (100-150 million cells/bottle). Medium is aspirated off, 2 ml of Trypsin-EDTA are added to each plate and incubated at RT for ˜2 minutes or until cells have lifted off plates. Eight ml of F12 medium are added to each plate to resuspend cells and the entire 10 ml are added to 1 roller bottle containing 90 ml of the F12 medium. • 8. The 60 roller bottles are immediately placed on their sides and transferred to the roller bottle incubator. They are incubated at 37° C.+5% CO2 for ˜3-5 days. Cells are spun at 30-40% motor speed in the Forma incubator. • 9. Medium is poured off and cells are washed 2× in PBS. • 10. Cells are then scraped off in 20 ml of PBS and the bottles are rinsed again with 5 ml of PBS to remove any remaining cells. Cells are stored on ice before membrane preparation. • 11. The yield for 60 D3 roller bottles has varied from ˜260-500 mg. • Note: All tissue culture reagents are from Gibco-BRL. C. Membrane Preparation
The cells are harvested into 250 ml centrifuge tubes with 100 volumes of cold phosphate buffered saline (PBS) and spun down (1200×G for 10 min at 4° C.). The medium is removed and 100 ml PBS are added to each centrifuge tube, cells are resuspend and spun down again. The PBS is removed and the final pellet is homogenized in an appropriate volume of 10% DMSO with a polytron on ice at a medium setting.
1. 0.5M Tris Buffer, pH 7.7 • a) 44.4 g Tris HCl 26.5 g Tris Base q.s. to 1 Liter (0.5 M Tris buffer, pH 7.7 at 37° C.) • b) make a 1:10 dilution in distilled H2O (0.05 M. Tris buffer, pH 7.7) 2. Tris Buffer Containing Physiological Salts • a) Stock buffer • NaCl 7.014 g • KCl 0.372 g • CaCl2 0.222 g • MgCl2 0.204 g • q.s. To 100 ml with 0.5 M. Tris Buffer • b) Dilute 1:10 in distilled H2O […]

Ki | Compound
9.6 nM | CCCCOc1ccc(C(=O)NCCCCN2CCN(c3c(Cl)sc4cc(F)ccc34)CC2)cc1
31 nM | CC1[C@@H](CNC(=O)c2ccc(F)cc2)[C@@H]1CN1CCN(c2csc3cc(C(F)(F)F)ccc23)CC1 (some centres unmarked)
54 nM | CC1(C)[C@@H](CNC(=O)c2cc3ccccc3s2)[C@@H]1CN1CCN(c2csc3cc(C(F)(F)F)ccc23)CC1

Same assay, conditions: read-out: D3K1; Table 2

Ki | Compound
0.958 nM | O=C(NCCCCN1CCN(c2c(F)sc3cc(F)ccc23)CC1)c1ccc2ccccc2c1
142 nM | CC(=O)Nc1cccc(C(=O)NCC(CO)CCN2CCN(c3csc4cc(C(F)(F)F)ccc34)CC2)c1 (centres unmarked)
22.4 nM | COc1ccc2[nH]c(C(=O)NC/C=C/CN3CCN(c4csc5cc(C(F)(F)F)ccc45)CC3)cc2c1
3.1 nM | Cc1cccc2cc(C(=O)NCCCCN3CCCN(c4csc5cc(F)ccc45)CC3)oc12
157 nM | O=C(NCCCCN1CCN(c2c(-c3ccccc3)sc3cc(C(F)(F)F)ccc23)CC1)c1ccc2c(c1)OCO2
436 nM | O=C(NCCC[C@@H](CO)N1CCN(c2csc3cc(C(F)(F)F)ccc23)CC1)c1c(F)cc(F)cc1F
414 nM | O=C(NCCC(CO)CN1CCN(c2csc3cc(C(F)(F)F)ccc23)CC1)c1ccccc1CCc1ccccc1 (centres unmarked)
285 nM | O=C(NCC(CO)CCN1CCN(c2csc3cc(C(F)(F)F)ccc23)CC1)c1ccc(Br)cc1 (centres unmarked)
353 nM | Cc1ccc(C(=O)NCCC[C@H](CO)N2CCN(c3csc4cc(C(F)(F)F)ccc34)CC2)cc1
0.5 nM | O=C(NCCCCN1CCN(c2c(F)sc3cc(F)ccc23)CC1)c1ccc(-c2ccccc2)cc1
319 nM | O=C(NCCC[C@@H](CO)N1CCN(c2csc3cc(C(F)(F)F)ccc23)CC1)c1ccc(O)c(CN2CCOCC2)c1
326 nM | CCCCOc1ccc(C(=O)NCCCCN2CCN(c3c(-c4ccccc4)sc4cc(F)ccc34)CC2)cc1
243 nM | O=C(NCCC[C@H](CO)N1CCN(c2csc3cc(C(F)(F)F)ccc23)CC1)c1ccccc1-n1cccc1
1.23 nM | O=C(NCCCCN1CCN(c2c(F)sc3cc(F)ccc23)CC1)c1cccs1
150 nM | CCOc1ccc(C(=O)NC/C=C/CN2CCN(c3csc4cc(C(F)(F)F)ccc34)CC2)cc1 [817402]
101 nM | COc1ccc(C(=O)NCC(CO)CCN2CCN(c3csc4cc(C(F)(F)F)ccc34)CC2)cc1 (centres unmarked)
349 nM | Cc1ccc(C(=O)NCCC[C@@H](CO)N2CCN(c3csc4cc(C(F)(F)F)ccc34)CC2)cc1
166 nM | COc1ccc(C(=O)NCC(CO)CCN2CCN(c3csc4cc(C(F)(F)F)ccc34)CC2)cc1OC (centres unmarked)

Same assay, conditions: read-out: D3K1; Table 2; tested form: hydrochloride hydrate

Ki | Compound
3.49 nM | O=C(NCCCCN1CCN(c2csc3cc(C(F)(F)F)ccc23)CC1)c1ccc(O)cc1

Same assay, conditions: read-out: D3Ki; the 13th table, unit inferred; tested form: maleate

Ki | Compound
0.725 nM | O=C(NCCCCN1CCCN(c2csc3cc(F)ccc23)CC1)c1ccc2cc[nH]c2c1 [S977825]
1.9 nM | COc1ccc2[nH]c(C(=O)NCCCCN3CCCN(c4csc5cc(F)ccc45)CC3)cc2c1 [S977820]
1.22 nM | CC1=C(C(=O)NCCCCN2CCCN(c3csc4cc(F)ccc34)CC2)Cc2ccccc21 [S977827]
1.16 nM | O=C(NCCCCN1CCCN(c2csc3cc(F)ccc23)CC1)c1cccc2[nH]ccc12 [S977823]

Same assay, conditions: read-out: D3 Ki; the 16th table

Ki | Compound
3.1 nM | Cc1cccc2cc(C(=O)NCCCCN3CCCN(c4csc5cc(F)ccc45)CC3)oc12
